Values quoted from earlier work, collected in patent publication US20200400567A1, “FUSION POLYPEPTIDE” (PEKING UNIVERSITY, priority 2017, published 2020).

Biological target: T1, human acetylcholine receptor M3R subtype (Homo sapiens, UniProt P20309)
T1 construct: pDisplay N-terminal leader and vector-derived residues (N); expressed in transfected cells; host or cells: HEK293T
Settings: literature (Jakubik 1997); read-out: Kd of WT-M3R; cited from earlier work

B1: WT-M3R: natural M3 type acetylcholine receptor without cpEGFP insertion (protein)
chain: MTLHNNSTTSPLFPNISSSWIHSPSDAGLPPGTVTHFGSYNVSRAAGNFSSPDGTTDDPLGGHTVWQVVFIAFLTGILALVTIIGNILVIVSFKVNKQLKTVNNYFLLSLACADLIIGVISMNLFTTYIIMNRWALGNLACDLWLAIDYVASNASVMNLLVISFDRYFSITRPLTYRAKRTTKRAGVMIGLAWVISFVLWAPAILFWQYFVGKRTVPPGECFIQFLSEPTITFGTAIAAFYMPVTIMTILYWRIYKETEKRTKELAGLQASGTEAETENFVHPTGSSRSCSSYELQQQSMKRSNRRKYGRCHFWFTTKSWKPSSEQMDQDHSSSDSWNNNDAAASLENSASSDEEDIGSETRAIYSIVLKLPGHSTILNSTKLPSSDNLQVPEEELGMVDLERKADKLQAQKSVDDGGSFPKSFSKLPIQLESAVDTAKTSDVNSSVGKSTATLPLSFKEATLAKRFALKTRSQITKRKRMSLVKEKKAAQTLSAILLAFIITWTPYNIMVLVNTFCDSCIPKTFWNLGYWLCYINSTVNPVCYALCNKTFRTTFKMLLLCQCDKKKRRKQQYQQRQSVIFHKRAPEQAL
For B1, the Kd is listed as 500 to 2000 nM.
